The values below are quoted from earlier work in PMC8566089 (Bioorganic Chemistry, 2021).

SMILES strings stand for the structures.

The data set has as its system A431 (squamous skin) cancer cell line. To be noted: read-out: IC50 ± SE, A431; cited from earlier work.

As usually defined, the IC50 is the midpoint of a concentration-inhibition curve. For `O=c1[nH]cc(F)c(=O)[nH]1` [Compound 5-FU, 5-fluorouracil, reference compound], the IC50 was 23.4 ± 2.09 µM.
